By UniProt entry, the sequences of proteins in these tests, tags left out.
UniProt P25103, whole entry: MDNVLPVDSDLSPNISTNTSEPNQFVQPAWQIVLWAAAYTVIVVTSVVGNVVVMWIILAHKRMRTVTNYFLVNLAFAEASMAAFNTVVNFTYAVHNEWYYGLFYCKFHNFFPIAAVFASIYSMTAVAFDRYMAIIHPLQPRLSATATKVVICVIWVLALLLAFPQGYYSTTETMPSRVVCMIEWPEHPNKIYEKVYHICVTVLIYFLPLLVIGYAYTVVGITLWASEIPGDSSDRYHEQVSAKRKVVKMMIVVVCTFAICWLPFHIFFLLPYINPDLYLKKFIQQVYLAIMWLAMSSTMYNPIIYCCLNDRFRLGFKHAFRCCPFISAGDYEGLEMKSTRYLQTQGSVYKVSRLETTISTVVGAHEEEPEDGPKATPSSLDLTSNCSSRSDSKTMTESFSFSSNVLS

In ChEMBL document CHEMBL1126935, “N-acyl-L-tryptophan benzyl esters: potent substance P receptor antagonists” (J Med Chem, 1993):

Biological target: Substance-P receptor (Homo sapiens, UniProt P25103)
Assay: Tested against cloned human NK1 receptor by displacement of 125 I -labeled substance P expressed in CHO cells
Format: cell-based

SMILES: Cc1cc(C)cc(COC(=O)[C@H](Cc2c[nH]c3ccccc23)NC(=O)OC(C)(C)C)c1
- IC50: 133 nM
